## Measured affinities in a library of Ab-14 heavy chain variants

Values reported by Engelhart et al. 2022, doi:10.1038/s41597-022-01779-4 (FLAb copy).

The target is the same throughout: PDVDLGDISGINAS, from the HR2 region of SARS-CoV-2 spike.

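Phage display of a naive human antibody library on the peptide gave the parent. Variants in AAYL49 differ from the parent at up to three CDR positions; double and triple changes were sampled at random. The assay is AlphaSeq: two haploid yeast populations carry antibody and antigen on their surface. Pairs that bind mate more often; barcode pairs of the diploids are counted by sequencing. Read counts were normalised to the haploid input and turned into Kd by a linear fit to BCL2-family pairs of known affinity, for each replicate. Each pool was mated in three replicate cultures.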

Ab-14 is the parent antibody, in scFv form: VH, then a (GGGGS)3 linker, then VL. The light chain is unchanged in all variants.
VH: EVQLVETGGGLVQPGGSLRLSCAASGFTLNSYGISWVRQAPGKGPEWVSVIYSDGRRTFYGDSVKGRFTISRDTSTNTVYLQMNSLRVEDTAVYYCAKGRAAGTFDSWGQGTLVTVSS
VL: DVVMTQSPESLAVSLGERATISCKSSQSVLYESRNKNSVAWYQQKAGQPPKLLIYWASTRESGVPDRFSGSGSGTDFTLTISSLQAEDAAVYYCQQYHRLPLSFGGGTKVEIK

Substitutions are numbered in sequence along the VH above, starting at 1 (not Kabat). Values are log10 of the apparent Kd in nM; lower means stronger binding. Averages over replicates are reported, and they cover detected replicates only. "n.d." means that the variant was in the library but no mating with the target was seen in that replicate; the authors take this as a sign of poor binding, and no number exists. Order: sorted from the lowest average up, undetected variants last.

| changes | log10 Kd, replicates | mean, log10 nM |
|---|---|---|
| N30Q+I34V+S107L | 0.56 0.97 0.77 | 0.77 |
| S31K+S63R+R100Q | 0.82 1.00 0.99 | 0.94 |
| T28Y+G61D+D62P | 1.60 1.72 1.73 | 1.68 |
| G26M+G103V+S107R | 1.68 1.86 1.75 | 1.77 |
| A102F+S107N | 2.51 2.28 2.80 | 2.53 |
| T28I+L29M+S63T | 2.11 2.35 3.14 | 2.53 |
| S31F+Y32W | n.d. 3.01 n.d. | 3.01 |
| S31Y+S53M+T104P | 3.21 n.d. 3.43 | 3.32 |
| G55N+R56T+A102M | 3.38 n.d. n.d. | 3.38 |
| L29F+R56I+G99C | 3.91 3.16 3.16 | 3.41 |
| T58V+D106A | n.d. n.d. 3.60 | 3.60 |
| G33H+R56T+G103L | 4.08 n.d. n.d. | 4.08 |
| R56L+R100S+A101F | 4.55 3.64 4.48 | 4.23 |
| G55F+A101M+G103T | 5.06 3.79 n.d. | 4.43 |
| S53I+S63P+F105V | 3.80 5.33 4.26 | 4.46 |
| I51Q+D54E+A102D | 5.24 4.24 4.92 | 4.80 |
| Y32D+V50H+K65V | 6.26 4.22 5.01 | 5.16 |
| G33N+D54K+A101R | n.d. n.d. 5.61 | 5.61 |
| Y32V+I34K+A101W | n.d. n.d. n.d. | n.d. |
| S53I+K65T+G99H | n.d. n.d. n.d. | n.d. |
| R56I+A101T+T104R | n.d. n.d. n.d. | n.d. |
| S35D+T58K+D62W | n.d. n.d. n.d. | n.d. |
| F27L+V64N+F105A | n.d. n.d. n.d. | n.d. |
| L29P+G99F+A101M | n.d. n.d. n.d. | n.d. |
| F59K+S107N | n.d. n.d. n.d. | n.d. |
| Y52N+Y60M+D62T | n.d. n.d. n.d. | n.d. |
| N30Y+G99V+A101E | n.d. n.d. n.d. | n.d. |
| G26S+S31H+G99A | n.d. n.d. n.d. | n.d. |
| F27I+L29N+V50N | n.d. n.d. n.d. | n.d. |
| D54N+V64H+R100A | n.d. n.d. n.d. | n.d. |
| Y60V+S63F+D106T | n.d. n.d. n.d. | n.d. |
| I34N+T104W | n.d. n.d. n.d. | n.d. |
| L29S+S53R+D106K | n.d. n.d. n.d. | n.d. |
| G55Y+S107K | n.d. n.d. n.d. | n.d. |
| N30I+I51N+S107E | n.d. n.d. n.d. | n.d. |
| T28I+G33P+G99I | n.d. n.d. n.d. | n.d. |
| T58G+A102I+S107R | n.d. n.d. n.d. | n.d. |
| Y32G+S35K+G99W | n.d. n.d. n.d. | n.d. |
| L29H+R57H+T58A | n.d. n.d. n.d. | n.d. |

Nonspecific signal, from three strains lacking the peptide, appeared in 15% of pairings of library AAYL49, centred on 4.06 (5% of these signals below 2.83); values are not corrected for it. Parent in this assay: reference entry 0.65, copy in this library 4.11 (one replicate of three).